Test results: patent US20170313754A1 (PROTAGONIST THERAPEUTICS, published 2017)

Assays:
[1] = target: T1, human ferroportin (SLC40A1) fused in frame with GFP, stably expressed on HEK293 cells (human, UniProt Q9NP59 1-571); assay: cell-based or functional assay
T1 sequence (looked up): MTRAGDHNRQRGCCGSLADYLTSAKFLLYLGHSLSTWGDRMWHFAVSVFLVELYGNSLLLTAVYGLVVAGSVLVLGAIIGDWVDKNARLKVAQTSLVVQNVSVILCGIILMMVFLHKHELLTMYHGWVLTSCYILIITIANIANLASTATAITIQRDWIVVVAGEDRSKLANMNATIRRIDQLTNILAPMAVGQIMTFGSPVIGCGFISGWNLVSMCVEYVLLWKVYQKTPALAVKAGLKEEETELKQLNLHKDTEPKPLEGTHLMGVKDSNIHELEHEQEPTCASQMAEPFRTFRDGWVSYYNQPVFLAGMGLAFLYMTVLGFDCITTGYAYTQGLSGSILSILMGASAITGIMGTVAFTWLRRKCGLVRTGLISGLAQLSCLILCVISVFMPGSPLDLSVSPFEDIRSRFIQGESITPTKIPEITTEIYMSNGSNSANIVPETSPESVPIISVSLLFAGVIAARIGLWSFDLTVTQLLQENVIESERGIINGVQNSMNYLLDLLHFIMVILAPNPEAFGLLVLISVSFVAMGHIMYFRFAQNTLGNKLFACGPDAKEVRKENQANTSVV

[2] = target: T1, human ferroportin (SLC40A1) fused in …; assay: cell-based or functional assay; remark: listed apart in the source

- EC50 (nM) (n > 3), ferroportin internalization/degradation assay [1]: 17 nM
B1: (Isovaleric acid-DTHFPCIKF)2[Lys]-Lys[(isoGlu(octanoic acid)]-NH2 (peptide)
peptide: DTHFPCIKF
modifications: N-terminal isovaleric acid on each subunit; the two subunits are joined at their C-termini through a [Lys] linker, which is followed by Lys[(isoGlu(octanoic acid)]-NH2)

- EC50 (nM) (n > 3), ferroportin internalization/degradation assay [2]: 17 nM
B2: (Isovaleric acid-DTHFPCIKF)2[Lys]-Lys(Palm)-NH2 (peptide)
peptide: DTHFPCIKF
modifications: N-terminal isovaleric acid on each subunit; the two subunits are joined at their C-termini through a [Lys] linker, which is followed by Lys(Palm)-NH2

- EC50 (nM) (n > 3), ferroportin internalization/degradation assay [2]: 17 nM
- EC50 (nM) (n > 3), ferroportin internalization/degradation assay [1]: 17 nM
B3: (cyclohexanoic acid-DTHFPCIKF)2[Lys]K(iso-Glu-Palm)-NH2 (peptide)
peptide: DTHFPCIKF
modifications: N-terminal cyclohexanoic acid on each subunit; the two subunits are joined at their C-termini through a [Lys] linker, which is followed by K(iso-Glu-Palm)-NH2

Where two headings read alike, the source gives them in different places. Each block holds one binder with its values, some of them ahead of it.
